Reference: ChEMBL document CHEMBL1135700, “Design, synthesis and activity of ascorbic acid prodrugs of nipecotic, kynurenic and diclophenamic acids, liable to increase neurotropic activity” (2002)

Test system: O=C1O[C@H]([C@@H](O)CO)C(O)=C1O
Assay: Uptake of ([14C]- AA) mediated by sodium-dependent ascorbate transporters, SVCT2 measured as Maximum velocity (Vmax)
Format: functional

## Solute carrier family 23 member 2 (Homo sapiens), Q9UGH3
  Vmax (nM hr-1 (10e6*cells)-1): 4.3
